Read-outs that look alike come from different tables or passages of the source. Each block holds one molecule with its values, some of them ahead of it.
Columns and labels:
[1] = system: pERK in HCT-116 cells (KRAS G13D); assay: Phospho-ERK inhibition (AlphaLISA SureFire Ultra p-ERK 1/2), HCT116; settings: for HCT116 pERK Ymin %: lowest % inhibition value of the IC50 curve; for IC50: HCT116 cells
Procedure, shortened: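 Read-out: AlphaLISA p-ERK1/2 (Thr202/Tyr204) in lysates after 1 h exposure to compound in complete RPMI-1640, 5% FBS, 0.5% DMSO. Trametinib defined 100% inhibition and vehicle 0%; IC50 values come from four-parameter curves. Negative inhibition was taken as paradoxical pERK induction.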

The chains behind the UniProt entries cited, without tags or fusion partners.
UniProt P04049, whole entry: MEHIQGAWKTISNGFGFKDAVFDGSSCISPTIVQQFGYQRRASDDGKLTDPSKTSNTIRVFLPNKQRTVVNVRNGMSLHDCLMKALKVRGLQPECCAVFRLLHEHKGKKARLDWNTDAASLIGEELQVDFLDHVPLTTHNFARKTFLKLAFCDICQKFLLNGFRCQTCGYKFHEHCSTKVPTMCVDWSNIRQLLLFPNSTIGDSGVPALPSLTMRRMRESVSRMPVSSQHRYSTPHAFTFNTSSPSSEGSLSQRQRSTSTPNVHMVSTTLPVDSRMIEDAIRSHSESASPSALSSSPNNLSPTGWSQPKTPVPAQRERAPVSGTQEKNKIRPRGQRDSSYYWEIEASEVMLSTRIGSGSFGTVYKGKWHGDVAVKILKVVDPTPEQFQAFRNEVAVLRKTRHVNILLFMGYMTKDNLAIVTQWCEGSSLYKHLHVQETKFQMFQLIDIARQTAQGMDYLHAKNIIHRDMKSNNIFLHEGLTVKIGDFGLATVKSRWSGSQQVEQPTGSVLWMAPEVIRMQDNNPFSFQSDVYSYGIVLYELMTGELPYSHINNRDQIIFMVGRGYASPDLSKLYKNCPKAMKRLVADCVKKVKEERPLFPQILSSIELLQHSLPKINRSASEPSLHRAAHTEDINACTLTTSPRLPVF
UniProt P10398, whole entry: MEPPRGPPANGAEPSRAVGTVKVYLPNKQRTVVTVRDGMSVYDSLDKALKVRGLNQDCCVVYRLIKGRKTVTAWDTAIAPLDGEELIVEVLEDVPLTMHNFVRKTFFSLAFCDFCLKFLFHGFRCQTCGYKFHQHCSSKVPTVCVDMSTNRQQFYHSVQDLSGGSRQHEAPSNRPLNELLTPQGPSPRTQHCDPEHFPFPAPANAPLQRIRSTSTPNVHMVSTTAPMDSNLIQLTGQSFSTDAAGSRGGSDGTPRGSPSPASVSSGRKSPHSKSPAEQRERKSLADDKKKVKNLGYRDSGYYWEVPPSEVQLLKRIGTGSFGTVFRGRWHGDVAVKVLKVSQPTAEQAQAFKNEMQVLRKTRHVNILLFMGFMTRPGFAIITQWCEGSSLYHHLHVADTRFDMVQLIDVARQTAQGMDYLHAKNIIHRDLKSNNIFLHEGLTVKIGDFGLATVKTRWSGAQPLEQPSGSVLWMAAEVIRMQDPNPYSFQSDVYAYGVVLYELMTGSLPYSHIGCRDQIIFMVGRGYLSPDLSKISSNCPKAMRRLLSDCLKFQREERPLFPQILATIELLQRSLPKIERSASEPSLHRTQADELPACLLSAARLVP

[2] = system: pERK in SW480 cells (KRAS G12D); assay: Phospho-ERK inhibition (AlphaLISA), SW480; settings: lowest % inhibition value of the IC50 curve, SW480
Method: All cancer cell lines (A375, A101D, A2058, RKO, HT29 SK-MEL 30, IPC298, HepG2, HCT-116, Lovo, SWV620, SW480, NCI-H358, NCI-H2122, Calu-6, NCIH2087, NCIH1755, NCIH1666 and Mewo) were obtained from ATCC and cultured in RPMI-1640 medium (Gibco) supplemented with 5% heat inactivated fetal bovine serum (FBS, Wisent) at 37° C. under 5% CO2. Cells were maintained in T175 flasks (Greiner). They were passaged by removing the culture medium, washing once in 10 mL of room temperature Phosphate Buffered Saline (PBS; Wisent) and incubating at 37° C. with 2 mL of 0.05% Trypsin (Thermo-Fisher). Trypsin was then inactivated by adding complete growth medium and the cells were then replated in a T175 culture dish at the appropriate dilution. All cell lines were routinely tested for mycoplasma contamination. Tissue type and mutational status of each cell line can be found in Table B.
AlphaLISA® SureFire® Ultra™ p-ERK 1/2 (Thr202/Tyr204) analysis was conducted on cells plated in 100 μL of complete RPMI-1640 growth medium in 96-well flat-bottomed transparent dishes (Costar) at a density indicated in Table C. Cells were maintained overnight at 37° C. under 5% CO2 before treatment with compounds' dilution series for one hour. The cell density in cells/cm^2 corresponds to cell number divided by the area of one well of a 96-well plate ([…]).
In a dilution series 100 μL/well of test substance dilution prepared in complete RPMI-1640 growth media was added to the cells. The dilution series is selected so that ten concentrations cover a range from 10 μM to 0.33 nM. If necessary the initial concentration of 10 μM is increased to 100 μM or lowered to 1 μM (as in the case of A375 and H1666 cells, which are generally more sensitive to the compounds) and further dilution is carried out accordingly. The final concentration of DMSO in the assay is set at 0.5%.
After treatment, media was removed and cells were lysed in 50 μL of 1× AlphaScreen Ultra Lysis Buffer (Perkin Elmer). The AlphaLISA® SureFire® Ultra™ p-ERK 1/2 (Thr202/Tyr2O4) (PerkinElmer) reactions were performed with 5 μL of cell lysate according to the manufacturer's specifications in 384-well proxyplates (Perkin Elmer) followed by overnight incubation of the reactions at room temperature in a humidified chamber. After completion of the reactions, the signals were recorded on an EnVision plate reader (Perkin Elmer) using built in AlphaLISA® settings.
The effect of each compound dilution on the pERK signal was expressed in % inhibition and calculated as follows. An internal 100% inhibition control ([…] trametinib, cat #HY-10999; MedChem Express; CAS #871700-17-3) was included in each plate and used as a measure of pERK background. First, the value obtained for trametinib was subtracted from each data point. The average of DMSO (vehicle) controls (set as 0% inhibition) was established and used to calculate % inhibition: % inhibition=100*(1-((pERK signalcompound)/(pERK signalDMSO)))
The ability of each compound to inhibit pERK signal was expressed as an IC50 value obtained by plotting the inhibition values for each data point of a dilution series and fitting the obtained curves using a log(agonist) versus response-variable slope (four parameters) function using GraphPadPrism (V7.0) or Dotmatics Screening Ultra platform.
When present, paradoxical pERK induction is inferred from the negative % inhibition values observed in the pERK IC50 curves of a compound.

[3] = target: CRAF (Homo sapiens, UniProt P04049); assay: CRAF kinase activity assay (ADP-Glo); settings: read-out: Kinase IC50 (nM) CRAF
[4] = target: ARAF (Homo sapiens (Human), UniProt P10398); assay: ARAF kinase activity assay (AlphaLISA p-MEK 1/2 detection); settings: read-out: Kinase IC50 (nM) ARAF
Method: Compound preparation: solid samples of each substances in 1 dram vials were suspended in DMSO (Fisher Scientific) at a stock concentration of 20 mM. Stocks were kept at −20° C. and protected from light. If solubility of the compound at 20 mM appeared to be an issue, the initial concentration of the DMSO stock was changed to 10 mM or 5 mM.
In vitro enzymatic reactions were used for evaluating compounds intrinsic activity against BRAF, CRAF and ARAF. For BRAF and CRAF, 0.375 nM of purified GST-tagged kinases (cat #B4062-10 UG and cat #R1656-10 UG respectively from Millipore Sigma) were incubated with 75 nM of kinase-dead MEK1 substrate (cat #40075; BPS Bioscience) in the presence of 10 μM of Ultrapure ATP (cat #V9102; Promega; part V915A) with and without the test compound in a buffer containing 50 mM HEPES pH 7.5, 10 mM MgCl2, 1 mM EDTA, 0.01% Brij-35 and 2 mM DTT. Separate reactions were performed with the MEK1 substrate and ATP as a blank control. ARAF, kinase reactions were rigorously the same with the exception that kinase concentration was raised to 3.75 nM (cat #1768-0000-1; Reaction Biology).
For compound treatment, 5 μL/well of test substance solution are placed in a 384-well proxyplate (Perkin Elmer) and mixed with 2× concentrated kinase reactions. The dilution series is selected so that nine concentrations cover a range from 100 nM to 0.01 nM. […] The final concentration of DMSO in the assay is set at 0.05%.
ARAF kinase reactions were carried out for a total of 2 hours at 30° C. and then stopped by addition of EDTA at a final concentration of 40 mM. Reactions were then detected using the AlphaLISA® SureFire® Ultra™ p-MEK 1/2 (Ser218/222) (PerkinElmer) kit. Reactions were performed with 5 μL of kinase reaction according to the manufacturer's specifications in 384-well proxyplates (Perkin Elmer) followed by overnight incubation of the AlphaLISA® reactions at room temperature in a humidified chamber. After completion of the detection reactions, the signals were recorded on a Synergy Neo2 plate reader (Biotek) equipped with AlphaLISA® filters. The effect of each compound dilution on the pMEK signal generated by ARAF reactions was expressed in % inhibition and calculated as follows. An internal 100% inhibition control (average of luminescence in kinase reactions comprising kinase dead MEK1 substrate alone) was included in each plate to measure of pMEK background and was subtracted from each data point. The average of DMSO (vehicle) controls (set as 0% inhibition) was also established and used to calculate % inhibition: % inhibition=100*(1−((pMEK signalcompound)/(pMEK signalDMSO)))
IC50 values were obtained by plotting the kinase inhibition values and fitting the dose-activity curves using a log(agonist) versus response-variable slope (four parameters) function using either GraphPadPrism (V7.0) or Dotmatics Screening Ultra platform. Standards included in the ARAF kinase assay were Belvarafenib (MedChem Express cat #HY-109080; CAS #1446113-23-0), LXH254 (MedChem Express cat #HY-112089; CAS #1800398-38-2) and BGB283 (cat #HY-18957; CAS #1446090-79-4).

[5] = read-out: HCT116 pERK IC50 in μM, 1 h treatment
[6] = read-out: HCT116 pERK IC50, class symbol

SMILES: Cc1cccc(Cl)c1S(=O)(=O)Nc1ccc(F)c(Nc2ncnc3ccc(-n4cnc5ccccc54)nc23)c1F
HCT116 pERK Ymin % [1]: −9%
IC50 [1, 5]: 1 to 10 µM
SW480 pERK (Ymin %) [2]: 1%

SMILES: O=S(=O)(Nc1ccc(F)c(Nc2ncnc3ccc(-n4cnc5ccccc54)nc23)c1F)c1cc(Cl)ccc1Cl
HCT116 pERK Ymin % [1]: −10%
IC50 [1, 5]: 1 to 10 µM
SW480 pERK (Ymin %) [2]: −2%

SMILES: O=S(=O)(Nc1ccc(F)c(Nc2ncnc3ccc(-n4cnc5ccccc54)nc23)c1F)c1ccccc1C(F)(F)F
IC50 [3]: < 10 nM
HCT116 pERK Ymin % [1]: −1%
IC50 [1, 5]: 1 to 10 µM
SW480 pERK (Ymin %) [2]: 4%

SMILES: COc1ccc(S(=O)(=O)Nc2ccc(F)c(Nc3ncnc4ccc(-n5cnc6c(N)cccc65)nc34)c2F)cc1
IC50 [4]: 1 to 10 nM
IC50 [1, 6]: < 0.5 µM

SMILES: O=S(=O)(Nc1ccc(F)c(Nc2ncnc3ccc(-n4cnc5ccccc54)nc23)c1F)c1ccc2c(c1)OCO2
HCT116 pERK Ymin % [1]: −4%
IC50 [1, 5]: 1 to 10 µM
SW480 pERK (Ymin %) [2]: 4%

SMILES: Cc1c(F)cccc1S(=O)(=O)Nc1ccc(F)c(Nc2ncnc3ccc(-n4cc(C(=O)N(C)CCc5ccccn5)c5ccccc54)nc23)c1F
IC50 [4]: 1 to 10 nM
IC50 [1, 6]: < 0.5 µM

SMILES: CN1CC2CCC(C1)N2C(=O)c1nn(-c2ccc3ncnc(Nc4c(F)ccc(NS(=O)(=O)c5cccc(Cl)c5Cl)c4F)c3n2)c2ccccc12
IC50 [4]: 1 to 10 nM
IC50 [1, 6]: < 0.5 µM

SMILES: O=S(=O)(Nc1ccc(F)c(Nc2ncnc3ccc(-n4cnc5c(-c6cccnc6)cccc54)nc23)c1F)c1cccc(Cl)c1Cl
IC50 [4]: 1 to 10 nM
IC50 [1, 6]: < 0.5 µM

SMILES: COc1ccc(S(=O)(=O)Nc2ccc(F)c(Nc3ncnc4ccc(-n5cnc6ccccc65)nc34)c2F)c(F)c1
HCT116 pERK Ymin % [1]: 5.6%
IC50 [1, 5]: 0.5 to 1 µM
SW480 pERK (Ymin %) [2]: 5%

SMILES: CO[C@@H]1CCN(S(=O)(=O)Nc2ccc(F)c(Nc3ncnc4ccc(-n5cnc6ccccc65)nc34)c2F)C1
HCT116 pERK Ymin % [1]: 6%
IC50 [1, 5]: 0.5 to 1 µM
SW480 pERK (Ymin %) [2]: 4.3%

SMILES: CN(C)CCN(C)S(=O)(=O)c1cn(-c2ccc3ncnc(Nc4c(F)ccc(NS(=O)(=O)c5cccc(Cl)c5Cl)c4F)c3n2)c2ccccc12
IC50 [4]: < 1 nM
IC50 [1, 6]: < 0.5 µM

SMILES: Cc1ccc(C)c(S(=O)(=O)Nc2ccc(F)c(Nc3ncnc4ccc(-n5cnc6ccccc65)nc34)c2F)c1
HCT116 pERK Ymin % [1]: −9%
IC50 [1, 5]: 1 to 10 µM
SW480 pERK (Ymin %) [2]: −4%

SMILES: COc1ccc(S(=O)(=O)Nc2ccc(F)c(Nc3ncnc4ccc(-n5cnc6ccccc65)nc34)c2F)cc1OC
IC50 [3]: > 50 nM
HCT116 pERK Ymin % [1]: 1%
IC50 [1, 5]: 1 to 10 µM
SW480 pERK (Ymin %) [2]: 16%

SMILES: Cc1ccc(S(=O)(=O)Nc2ccc(F)c(Nc3ncnc4ccc(-n5cnc6ccccc65)nc34)c2F)c(C)c1
HCT116 pERK Ymin % [1]: 6.4%
IC50 [1, 5]: 0.5 to 1 µM
SW480 pERK (Ymin %) [2]: −3.8%

SMILES: O=S(=O)(Nc1ccc(F)c(Nc2ncnc3ccc(-n4cnc5ccccc54)nc23)c1F)c1ccc(F)cc1Cl
HCT116 pERK Ymin % [1]: 6.9%
IC50 [1, 5]: 0.5 to 1 µM
SW480 pERK (Ymin %) [2]: 14%

Continued, in another order:

IC50 [1, 5]: < 0.5 µM
SMILES: O=S(=O)(Nc1ccc(F)c(Nc2ncnc3ccc(-n4cnc5ccccc54)nc23)c1F)c1ccccc1Br
HCT116 pERK Ymin % [1]: 9.9%
SW480 pERK (Ymin %) [2]: 9.4%

IC50 [1, 5]: 0.5 to 1 µM
SMILES: O=S(=O)(Nc1ccc(F)c(Nc2ncnc3ccc(-n4cnc5ccccc54)nc23)c1F)c1ccc(Cl)cc1Cl
HCT116 pERK Ymin % [1]: 11%
SW480 pERK (Ymin %) [2]: −2%

IC50 [1, 5]: 0.5 to 1 µM
SMILES: COc1ccc(S(=O)(=O)Nc2ccc(F)c(Nc3ncnc4ccc(-n5cnc6ccccc65)nc34)c2F)c(C)c1
HCT116 pERK Ymin % [1]: 2.3%
SW480 pERK (Ymin %) [2]: 15%

IC50 [3]: < 10 nM
IC50 [1, 5]: < 0.5 µM
SMILES: Cc1c(F)cccc1S(=O)(=O)Nc1ccc(F)c(Nc2ncnc3ccc(-n4cnc5ccccc54)nc23)c1F
HCT116 pERK Ymin % [1]: −8.6%
SW480 pERK (Ymin %) [2]: −10%

IC50 [3]: < 10 nM
IC50 [1, 5]: < 0.5 µM
SMILES: Cc1c(Cl)cccc1S(=O)(=O)Nc1ccc(F)c(Nc2ncnc3ccc(-n4cnc5ccccc54)nc23)c1F
HCT116 pERK Ymin % [1]: 1.9%
SW480 pERK (Ymin %) [2]: 0.6%

IC50 [3]: > 50 nM
IC50 [1, 5]: 0.5 to 1 µM
SMILES: Cc1cccc(S(=O)(=O)Nc2ccc(F)c(Nc3ncnc4ccc(-n5cnc6ccccc65)nc34)c2F)c1C
HCT116 pERK Ymin % [1]: −2.1%
SW480 pERK (Ymin %) [2]: −8.5%

IC50 [3]: < 10 nM
IC50 [1, 5]: 0.5 to 1 µM
SMILES: O=S(=O)(Nc1ccc(F)c(Nc2ncnc3ccc(-n4cnc5ccccc54)nc23)c1F)c1sccc1Cl
HCT116 pERK Ymin % [1]: 2.6%
SW480 pERK (Ymin %) [2]: 3.3%

IC50 [3]: < 10 nM
IC50 [1, 5]: 0.5 to 1 µM
SMILES: O=S(=O)(Nc1ccc(F)c(Nc2ncnc3ccc(-n4cnc5ccccc54)nc23)c1F)c1c(F)cccc1Cl
HCT116 pERK Ymin % [1]: 10%
SW480 pERK (Ymin %) [2]: 4.4%

IC50 [3]: < 10 nM
IC50 [1, 5]: < 0.5 µM
SMILES: COc1ccc(S(=O)(=O)Nc2ccc(F)c(Nc3ncnc4ccc(-n5cnc6ccccc65)nc34)c2F)c(Cl)c1
HCT116 pERK Ymin % [1]: 4%
SW480 pERK (Ymin %) [2]: −4%

— patent US12139488B2, “Pyrido[3,2-d]pyrimidine compounds uses thereof for treating a proliferative disease” (Universite de Montreal, priority 2021, dated 2024)
